Assay results published in patent publication US10329278B2, “Pharmaceutical compounds” (Heptares Therapeutics Limited, priority 2017, dated 2019).

Sequences of proteins named here, by UniProt entry; tags and fusion partners are left off.
UniProt P08173, whole entry: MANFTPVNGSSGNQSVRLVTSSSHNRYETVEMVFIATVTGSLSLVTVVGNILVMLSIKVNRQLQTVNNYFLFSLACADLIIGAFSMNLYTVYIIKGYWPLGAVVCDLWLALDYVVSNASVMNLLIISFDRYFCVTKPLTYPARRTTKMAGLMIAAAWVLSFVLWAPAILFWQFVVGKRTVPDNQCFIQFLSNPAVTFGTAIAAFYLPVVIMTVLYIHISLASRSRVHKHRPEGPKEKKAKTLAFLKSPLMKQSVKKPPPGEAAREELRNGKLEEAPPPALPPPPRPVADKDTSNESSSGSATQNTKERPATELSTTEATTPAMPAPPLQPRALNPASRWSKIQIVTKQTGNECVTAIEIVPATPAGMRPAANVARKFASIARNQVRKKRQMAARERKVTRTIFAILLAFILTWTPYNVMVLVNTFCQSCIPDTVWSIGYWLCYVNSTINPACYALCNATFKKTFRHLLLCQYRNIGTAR
UniProt P08172, whole entry: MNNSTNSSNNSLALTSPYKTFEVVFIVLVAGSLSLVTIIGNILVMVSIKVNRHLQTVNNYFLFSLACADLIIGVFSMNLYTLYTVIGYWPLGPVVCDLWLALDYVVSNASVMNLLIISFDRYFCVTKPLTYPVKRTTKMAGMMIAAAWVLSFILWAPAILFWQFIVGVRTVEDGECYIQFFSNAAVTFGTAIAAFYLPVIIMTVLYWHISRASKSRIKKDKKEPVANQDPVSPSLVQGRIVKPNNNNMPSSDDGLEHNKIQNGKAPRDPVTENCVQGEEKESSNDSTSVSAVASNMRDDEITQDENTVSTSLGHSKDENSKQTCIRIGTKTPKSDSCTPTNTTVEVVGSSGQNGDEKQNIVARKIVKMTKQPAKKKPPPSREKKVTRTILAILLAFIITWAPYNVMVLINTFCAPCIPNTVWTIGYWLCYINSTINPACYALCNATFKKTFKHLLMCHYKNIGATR
UniProt P11229, whole entry: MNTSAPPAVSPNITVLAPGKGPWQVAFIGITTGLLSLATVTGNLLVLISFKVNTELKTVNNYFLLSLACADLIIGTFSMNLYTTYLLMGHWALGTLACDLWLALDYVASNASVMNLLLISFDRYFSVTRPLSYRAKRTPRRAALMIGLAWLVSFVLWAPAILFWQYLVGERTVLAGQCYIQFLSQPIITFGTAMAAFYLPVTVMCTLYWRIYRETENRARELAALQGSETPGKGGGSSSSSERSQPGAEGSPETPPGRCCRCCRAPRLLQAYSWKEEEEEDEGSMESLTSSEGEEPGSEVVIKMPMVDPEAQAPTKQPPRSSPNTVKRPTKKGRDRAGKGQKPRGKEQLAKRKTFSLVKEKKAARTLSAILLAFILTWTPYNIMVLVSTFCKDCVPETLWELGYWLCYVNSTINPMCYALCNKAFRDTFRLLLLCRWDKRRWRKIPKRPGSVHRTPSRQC
UniProt P20309, whole entry: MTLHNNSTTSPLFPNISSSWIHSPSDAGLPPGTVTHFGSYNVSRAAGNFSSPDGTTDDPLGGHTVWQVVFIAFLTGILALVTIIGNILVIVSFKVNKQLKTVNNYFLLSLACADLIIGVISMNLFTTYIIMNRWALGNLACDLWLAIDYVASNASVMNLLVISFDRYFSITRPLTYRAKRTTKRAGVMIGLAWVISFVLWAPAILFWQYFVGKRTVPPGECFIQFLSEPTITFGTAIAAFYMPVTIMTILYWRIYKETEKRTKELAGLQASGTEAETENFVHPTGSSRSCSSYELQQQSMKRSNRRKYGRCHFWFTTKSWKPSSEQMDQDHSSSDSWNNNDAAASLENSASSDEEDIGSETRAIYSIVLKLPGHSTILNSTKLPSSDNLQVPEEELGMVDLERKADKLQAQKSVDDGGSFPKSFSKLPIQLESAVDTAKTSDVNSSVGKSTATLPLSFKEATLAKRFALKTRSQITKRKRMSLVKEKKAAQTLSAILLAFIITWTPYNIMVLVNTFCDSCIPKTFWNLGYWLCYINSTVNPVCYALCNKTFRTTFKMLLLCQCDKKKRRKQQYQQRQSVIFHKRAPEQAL

Key:
[1] = target: human muscarinic M4 receptor (Homo sapiens, UniProt P08173); experiment: Alphascreen Surefire phospho-ERK1/2 functional assay, M4; assay type: cell-based; conditions: CHO cells stably expressing human M4; for pEC50 M4: agonist 5 min, 37° C.; for % Emax cf. ACh (M4): relative to ACh
[2] = target: human muscarinic M2 receptor (Homo sapiens, UniProt P08172); experiment: Alphascreen Surefire phospho-ERK1/2 functional assay, M2; assay type: cell-based; conditions: CHO cells stably expressing human M2; relative to ACh
[3] = target: human muscarinic M1 receptor (Homo sapiens, UniProt P11229); experiment: Alphascreen Surefire phospho-ERK1/2 functional assay, M1; conditions: CHO cells stably expressing human M1; for pEC50 M1: agonist 5 min, 37° C.; for % Emax cf. ACh (M1): relative to ACh
[4] = target: human muscarinic M3 receptor (Homo sapiens, UniProt P20309); experiment: Alphascreen Surefire phospho-ERK1/2 functional assay, M3; assay type: cell-based; conditions: CHO cells stably expressing human M3; for pEC50 M3: agonist 5 min, 37° C.; for % Emax cf. ACh (M3): relative to ACh

Compound | pEC50 M4 [1] | % Emax cf. ACh (M4) [1] | % Emax cf. ACh (M2) [2] | pEC50 M1 [3] | % Emax cf. ACh (M1) [3] | pEC50 M3 [4] | % Emax cf. ACh (M3) [4]
CCOC(=O)N1CCC2(CC(N3C[C@@H]4[C@H](C3)[C@H]4C(=O)N3CCCOCC3)C2)C1 (single isomer, unassigned) [2-17 Isomer 2] | 6.55 | 63% | 7% | 7.19 | 96% | 4.70 | 20%
CCOC(=O)N1CC2CC(N3C[C@@H]4[C@H](C3)[C@H]4C(=O)N(CC)CC)CC1C2 (single isomer, unassigned) [11-2 Isomer 2] | 6.02 | 65% | 5% | 6.93 | 113% | 4.70 | 3%
CCOC(=O)N1C[C@H]2CC[C@@H]1CC2N1C[C@@H]2[C@H](C1)[C@H]2C(=O)N(CC)CC (single isomer, unassigned) [8-5 Isomer 2] | 4.70 | 12% | 2% | 7.05 | 39% | 4.70 | 5%
CCOC(=O)[C@H]1[C@@H]2CN(C3CCC4(C3)CN(C(=O)OCC)C4)C[C@@H]21 (some centres unmarked) | 7.89 | 62% | 4% | 4.70 | 21% | 4.70 | 2%
CCOC(=O)N1CCC2(CC(N3C[C@@H]4[C@H](C3)[C@H]4c3csc(C)n3)C2)C1 (single isomer, unassigned) [2-30 Isomer 2] | 7.57 | 88% | 34% | 6.85 | 86% | 4.70 | 7%
CCOC(=O)N1CC2CCC1CC2N1C[C@@H]2[C@H](C1)[C@H]2C(=O)N(CC)OC (single isomer, unassigned) [8-10 Isomer 1] | 7.13 | 52% | 7% | 7.87 | 117% | 4.70 | 21%
CCOC(=O)N1CCC2(CC(N3C[C@@H]4[C@H](C3)[C@H]4C(=O)N3CCCCCC3)C2)C1 (single isomer, unassigned) [2-16 Isomer 1] | 4.70 | 11% | 53% | 7.29 | 30% | 4.70 | 45%
CCOC(=O)N1CCC2(CC(N3C[C@@H]4[C@H](C3)[C@H]4C(=O)N(CC)OC)C2)C1 (single isomer, unassigned) [2-24 Isomer 2] | 7.30 | 102% | 11% | 7.47 | 115% | 4.73 | 47%
CCOC(=O)N1CC2(CCC(N3C[C@@H]4[C@H](C3)[C@H]4C(=O)N(CC)CC)C2)C1 (some centres unmarked) | 7.79 | 79% | 20% | 8.32 | 92% | 4.70 | 21%
CCOC(=O)N1CCC2(CC(N3C[C@@H]4[C@H](C3)[C@H]4C(=O)NC3(C)CCC3)C2)C1 (single isomer, unassigned) [2-4 Isomer 2] | 6.81 | 94% | 18% | 7.27 | 112% | 4.70 | 1%
CCOC(=O)N1C[C@H]2CC[C@@H]1CC2N1C[C@@H]2[C@H](C1)[C@H]2C(=O)N(CC)CC (single isomer, unassigned) [8-5 Isomer 1] | 5.72 | 47% | 6% | 6.89 | 106% | 4.70 | 6%
